This test addresses Cyclophilin B (CypB) (Homo sapiens (Human), UniProt P23284). The experiment in a line: Cyclophilin PPIase enzymatic assay (chymotrypsin coupled), CypB. The test is classed as biochemical. The following applies: for pIC50: CypB. As for the experimental part: Cyclophilin A, B protein carrying a hexahistidine tag (His-Tag) at the C-terminus, were expressed in Escherichia coli and purified. Briefly, cultures of C41(DE3) cells were grown at 37° C. for ˜1 h until the culture reached an optical density of 0.6 at 600 nm, and induced with 1 mM isopropyl β-D-thiogalactoside for 4 h at 37° C. or overnight at 22° C. for cylophilin A and cyclophilin B, respectively. Cell pellets (1 L) were resuspended in a lysis buffer (20 mM NaH2PO4 (pH 7.8), 300 mM NaCl, 7 mM β-mercaptoethanol, 1 mg/ml lysozyme, 0.1 U/μl Desoxyribonuclease and complete protease inhibitor tablets (Roche)). The sonicated cell lysates were clarified by centrifugation at 10 000 g for 45 min at 4° C., chromatographed on a Ni-NTA column and washed with buffer: (20 mM NaH2PO4 (pH7.8), 300 mM NaCl, 50 mM imidazole, 7 mM β-mercaptoethanol, 10% glycerol). The bound protein was eluted in 1 ml fractions with buffer: (20 mM NaH2PO4 (pH7.8), 300 mM NaCl, 250 mM imidazole, 7 mM β-mercaptoethanol, 10% glycerol) and monitored by the Bradford colorimetric assay. The purity of each cyclophilin was determined by Coomassie-stained SDS-PAGE analysis.
The reaction was initiated by adding 20 μL of 3.2 mM peptide substrate (Suc-Ala-Ala-cis-Pro-Phe-pNA) in LiCl/TFE solution with rapid inversion. […] The final concentration of LiCl in the assay was 20 mM; TFE was present at a concentration of 4% (v/v). Absorbance readings were collected every 1 s by spectrophotometer. The inhibition assays of compounds were performed in the same manner as mentioned above. A 5 μL aliquot of the compounds in DMSO was added to the cyclophilin solution in the assay buffer. The assay was started by the addition of the substrate. Cyclosporine A was used as control in all measurement. The percentage inhibition of cyclophilin PPiase activity were calculated from slopes and values obtained represent an average of at least two independent measurements.

By UniProt entry, the sequences of proteins in these tests, tags left out. Residues count along the entry.
UniProt P23284, 34-216: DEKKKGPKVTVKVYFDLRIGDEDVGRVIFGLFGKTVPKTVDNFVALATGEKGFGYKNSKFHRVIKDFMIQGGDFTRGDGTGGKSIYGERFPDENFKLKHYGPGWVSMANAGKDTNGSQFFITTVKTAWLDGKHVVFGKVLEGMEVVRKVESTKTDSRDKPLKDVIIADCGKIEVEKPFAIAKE

pIC50: −log10 of the molar value.

What is called inhibition is the drop in the measured response relative to a control, in per cent. A high value points to strong suppression. By pIC50 is commonly meant −log10 of the IC50, conventionally taken in molar units. A high value points to a small IC50. `COc1ccc(N(C)C(=O)CNC(=O)NCc2ccc(N)cc2)cc1` [Compound F555, 2-(3-(4-aminobenzyl)ureido)-N-4-methoxyphenyl-N-methylacetamide] gave an inhibition at 100 µM of 73.8% and a pIC50 of 4.56.

In the case of `CN(C(=O)CNC(=O)NCc1ccc(N)cc1)c1ccccc1` [Compound F557, 2-(3-(4-aminobenzyl)ureido)-N-phenyl-N-methylacetamide], the inhibition at 100 µM was determined as 76% and the pIC50 was 4.35.

The values above are taken from patent US8901295B2 (Institut National de la Sante et de la Recherche Medicale …, priority 2009, dated 2014).
